{
  "sequences": {"note": "Amino acid sequences for entries named in this document (tags omitted). A change or cut given only in a name is not applied to a line headed by its entry.", "UniProt P41145": "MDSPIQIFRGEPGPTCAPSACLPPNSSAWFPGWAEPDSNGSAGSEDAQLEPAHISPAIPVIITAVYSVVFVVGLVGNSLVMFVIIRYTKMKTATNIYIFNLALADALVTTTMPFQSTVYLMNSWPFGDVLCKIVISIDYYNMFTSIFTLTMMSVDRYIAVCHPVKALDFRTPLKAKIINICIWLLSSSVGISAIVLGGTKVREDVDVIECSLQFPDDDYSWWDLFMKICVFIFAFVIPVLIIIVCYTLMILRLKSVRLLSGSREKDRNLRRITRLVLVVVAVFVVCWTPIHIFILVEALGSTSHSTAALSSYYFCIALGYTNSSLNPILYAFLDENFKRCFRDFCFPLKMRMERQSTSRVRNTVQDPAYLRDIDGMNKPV", "UniProt P41144": "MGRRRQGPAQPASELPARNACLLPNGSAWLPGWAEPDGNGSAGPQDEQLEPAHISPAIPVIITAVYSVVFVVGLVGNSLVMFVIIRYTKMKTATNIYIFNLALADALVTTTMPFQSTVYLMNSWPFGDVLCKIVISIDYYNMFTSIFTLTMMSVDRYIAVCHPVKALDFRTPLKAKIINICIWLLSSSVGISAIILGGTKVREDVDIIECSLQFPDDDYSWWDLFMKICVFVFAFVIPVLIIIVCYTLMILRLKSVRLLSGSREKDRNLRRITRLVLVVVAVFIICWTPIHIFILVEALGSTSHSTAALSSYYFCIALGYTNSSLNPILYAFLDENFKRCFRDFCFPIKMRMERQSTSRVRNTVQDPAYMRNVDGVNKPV"},
  "source": "patent US20160122307A1",
  "about": "“PERHYDROQUINOXALINE DERIVATIVES” (DR. AUGUST WOLFF GMBH & CO. KG ARZNEIMITTEL, priority 2013, published 2016)",
  "key": {"[1]": {"target": "Human opiate κ receptors (Homo sapiens, UniProt P41145)", "experiment": "κ opioid receptor functional assay, [35S]GTPγS binding (assay C)", "type": "biochemical"}, "[2]": {"target": "T1, κ receptor (Cavia porcellus, UniProt P41144)", "T1 construct": "Membrane homogenates prepared from guinea pig brains were used as receptor material; from tissue; host or cells: guinea pig brain membrane homogenates", "experiment": "biochemical", "type": "binding, guinea pig"}},
  "note": "Like-named read-outs stand apart in the source and are kept apart here.",
  "data": [
    {"smiles": "COC(=O)N1CCN(C(=O)Cc2ccc(Cl)c(Cl)c2)[C@@H]2[C@@H](N3CCCC3)CCC[C@@H]21", "note": "[Example 89, (4aR,5S,8aS)-methyl 4-(2-(3,4-dichlorophenyl)acetyl)-5-(pyrrolidin-1-yl)octahydroquinoxaline-1(2H)-carboxylate]", "values": [
      {"measurement": "EC50", "setting": "[1]; GTPγS EC50 (nM)", "value": "10 to 100", "unit": "nM"},
      {"measurement": "EC50", "setting": "[1]; read-out: GTPγS EC50", "value": 1.99, "unit": "nM"}
    ]},
    {"smiles": "COC(=O)N1CCN(C(=O)Cc2ccc(Cl)c(Cl)c2)[C@H]2[C@H](N3CCCC3)CCC[C@@H]21", "note": "(racemic) [Reference compound B, reference compound]", "values": [
      {"measurement": "Ki", "setting": "[2]", "value": "23.6 ± 6.4", "unit": "nM"}
    ]},
    {"smiles": "COC(=O)N1CCN(C(=O)Cc2ccc(Cl)c(Cl)c2)[C@H]2[C@@H](N3CCCC3)CCC[C@@H]21", "note": "(single isomer, unassigned) [Reference compound F]", "values": [
      {"measurement": "Ki", "setting": "[2]; read-out: Ki (nM) ± SEM", "value": "115 ± 38", "unit": "nM"}
    ]},
    {"smiles": "COC(=O)N1CCN(C(=O)Cc2ccc(Cl)c(Cl)c2)[C@@H]2[C@H]1CCC[C@@H]2N1CCCC1", "note": "(racemic) [Reference compound E, reference compound]", "values": [
      {"measurement": "EC50", "setting": "[1]; read-out: GTPγS EC50", "value": 351, "unit": "nM"}
    ]}
  ]
}
